Laboratory results as given in the NIST ThermoML archive (doi:10.1016/j.fluid.2016.02.009).

Details: Liquid, Vibrating tube method

CCCCOCCCC [dibutyl ether]
mass density [kg/m3]
Details | 283.15 K | 288.15 K | 293.15 K | 298.15 K | 303.15 K
100 kPa | 777 | 772.71 | 768.41 | 764.09 | 759.76
5000 kPa | 781.24 | 777.03 | 772.85 | 768.6 | 764.4
10000 kPa | 785.22 | 781.07 | 777.07 | 772.95 | 768.85
15000 kPa | 789.01 | 785 | 781.04 | 777.05 | 773.07
20000 kPa | 792.62 | 788.61 | 784.83 | 780.93 | 777.07
25000 kPa | 796.12 | 792.26 | 788.51 | 784.66 | 780.91
30000 kPa | 799.48 | 795.67 | 792.02 | 788.29 | 784.58
35000 kPa | 802.7 | 799.01 | 795.4 | 791.72 | 788.11
40000 kPa | 805.84 | 802.2 | 798.65 | 795.05 | 791.5
45000 kPa | 808.84 | 805.31 | 801.84 | 798.27 | 794.77
50000 kPa | 811.78 | 808.25 | 804.88 | 801.34 | 797.96
55000 kPa | 814.68 | 811.16 | 807.8 | 804.38 | 801.03
60000 kPa | 817.42 | 814.04 | 810.68 | 807.34 | 804.04
65000 kPa | 820.1 | 816.76 | 813.46 | 810.16 | 806.89
